This is a selection; strong and weak results do not stand in their true shares. Calls of active or inactive are those of the source. The call rests on the fitted dose curve; in most records, active means well fitted activation curve with a large enough effect; inconclusive means small, poorly fitted or top-dose-only effect; inactive means no such curve, though single readings can be large or run the other way.
Test: qHTS for compounds that reverse cellular toxicity of Amyloid beta (A-beta) peptide in yeast: Primary Screen; further: nearly all actives have a fitted effect of over 55% in size
Details: yeast expressing A-beta42, growth rescue, OD600, 48 h, 0% DMSO, 100% iron-clioquinol control; at 46.1 µM (top of the series)
Description: The A-beta peptide is produced by the processing of the amyloid precursor protein (APP) by two proteases, beta and gamma secretases. […] A-beta42 is regarded as the most amyloidogenic form due to its hydrophobicity; however, precisely how A-beta42 induces neurotoxicity is unclear. To understand further this biology and its potential therapeutic implications for human neurodegenerative disease, a quantitative high-throughput screen for compounds that reverse the cellular toxicity of the A-beta peptide was developed. A yeast based screen was used because it recapitulates the salient feature of protein mis-folding disorder accurately. This cell-based phenotypic screen provides a significant, unbiased advantage by letting the compounds and models inform us which proteins or pathways are most relevant. The ideal chemical candidates would therefore have activity in both our primary yeast and secondary neuronal toxicity assays, as well as in mouse models. They will be valuable tools for dissecting diverse protein homeostasis pathologies and could potentially become the focus for future pre-clinical development. For this luminescence assay, inhibition of A-beta rescues the toxic effect in the yeast cell, resulting in increase of signals and the desired phenotype of "Activator". This screen is run against the Molecular Libraries Small Molecule Repository (MLSMR) and the NCGC Sytravon Library Collection.
NIH Chemical Genomics Center [NCGC]
NIH Molecular Libraries Probe Centers Network [MLPCN]
Assay Submitter (PI): Susan Lindquist, Whitehead Institute, Massachusetts Institute of Technology
[1] Vassar R,et al (1999). Beta-secretase cleavage of Alzheimer's amyloid precursor protein by the transmembrane aspartic protease BACE. Science. 286: 735-741.
[2] Yan R, et al (1999). Membrane-anchored aspartyl protease with Alzheimer's disease beta-secretase activity. Nature. 402: 533-536.
Two and a half microliter / well of yeast growth medium were dispensed in a 1536 assay plate. Compounds were pinned using the Kalypsys robotic system followed by addition of 2.5 uL / well yeast solution. The assay plates were incubated at 30 C. After 48 hr, the absorbance signal at 600 nm was obtained using the PerkinElmer ViewLux plate reader to assess yeast growth. The data was normalized to the positive control of an equimolar mixture of ferric chloride (FeCl3) and clioquinol and to the negative control DMSO.

Structure (SMILES)	growth rescue
CCCC1OP(=O)(Nc2ccccc2)OCC1CC (configuration not stated)	inactive: 3.93%
O=C(/C=C/c1ccccc1)OC1CN2CCC1CC2 (configuration not stated)	inactive: -11.9%
CN(C)C1(CNC(=O)c2ccc(S(C)(=O)=O)cc2)CCCCC1	inactive: 17%
O=P1(Nc2ncccn2)COc2ccccc2OC1	inactive: -7.95%
Cc1ccc(S(=O)(=O)N(CCCN)CCCc2c(C)nc(N)[nH]c2=O)cc1	inactive: -16.2%
O=[As](O)(c1cccs1)c1cccs1	inactive: 10.9%
O=P1(Nc2ccc(Br)cn2)COc2ccccc2OC1	inactive: 8.19%
NS(=O)(=O)c1cccc(NC(=O)COC(=O)C(O)(c2ccccc2)c2ccccc2)c1	inactive: -14.7%
Nc1cccc([As](=O)(O)c2ccccc2)c1	inactive: 13.4%
CCOP(=O)(Nc1ccc(C)cn1)OCC	inactive: -8.02%
CN(CCCl)Cc1cc(Cl)c(NC2=NCCN2)c(Cl)c1	inactive: 0%
CCOP(=O)(NC(=NC(C)c1ccccc1)NC(C)c1ccccc1)OCC (configuration not stated)	inactive: 13.2%
O=P1(Nc2ccccn2)COc2ccccc2OC1	inactive: -13.9%
CCC1=CC2Cc3nc4ccc(Cl)cc4c(N)c3C(C1)C2 (configuration not stated)	inactive: 1.78%
CC(C)(C)C(=O)NC(Sc1ncccn1)C(Cl)(Cl)Cl (configuration not stated)	inactive: 10.1%
O=P1(N(CCCl)CCCl)NCCC(C(F)(F)F)O1 (configuration not stated)	inactive: 4.85%
Clc1n[nH]nc1-c1nn[nH][15n]1	inactive: -0.784%
COc1ccccc1CNC(=O)COC(=O)C(O)(c1ccccc1)c1ccccc1	inactive: 10.1%
CC1(CBr)Cn2c(nc3ccccc3c2=O)S1 (configuration not stated)	inactive: 20%
CC(C)/C=N\N=C(\N)N[N+](=O)[O-]	inactive: -12.9%
CN(C(=O)Cc1ccc(Cl)c(Cl)c1)[C@@H]1CCCC[C@H]1N1CCCC1	inactive: -8.08%
COC(=O)C1(C)COP(=O)(N2CCCC2)OC1 (configuration not stated)	inactive: -2.62%
COP1(=S)c2c(C)nn(CCC#N)c2N=C(c2ccc(F)cc2)N1C (configuration not stated)	inactive: 9%
O=C(Nc1ccncc1[N+](=O)[O-])c1ccc([N+](=O)[O-])cc1[N+](=O)[O-]	inactive: 18.7%
O=C(COc1ccccc1)OC1CN2CCC1CC2 (configuration not stated)	inactive: 6.52%
O=C(O)C(=O)c1ccc(N(CCCl)CCCl)cc1	inactive: 2.68%

Structure (SMILES)	growth rescue
CCOC(=O)c1ccc(NC(=O)C(C)(CCl)SC)cc1 (configuration not stated)	inactive: 13.1%
CSc1ccc(Nc2c([N+](=O)[O-])cc([N+](=O)[O-])cc2[N+](=O)[O-])cc1	inactive: -37.4%
O=C(OC1CN2CCC1CC2)c1cccc([N+](=O)[O-])c1 (configuration not stated)	inactive: -16%
CC1CCNP(=O)(N(CCCl)CCCl)O1 (configuration not stated)	inactive: -4.59%
CCOC(=O)Nc1ccc([As](=O)(O)O)c(O)c1	inactive: 9.35%
O=C(O)C(O)c1ccc(N(CCCl)CCCl)cc1 (configuration not stated)	inactive: -4.86%
Cc1cc(SC(NC(=O)c2ccccc2)C(Cl)(Cl)Cl)nc(C(C)C)n1 (configuration not stated)	inactive: -1.2%
CCCCOc1ccc(C(=O)NCC2(N3CCCCC3)CCCCC2)cc1OC	inactive: -8.96%
COP(=O)(OC)N1CC1c1ccccc1 (configuration not stated)	inactive: -1.37%
CCOC(=O)Nc1cccc([As](=O)(O)O)c1	inactive: -24.5%
O=[N+]([O-])c1ccc(Nc2ccc(Oc3ccc([N+](=O)[O-])cc3[N+](=O)[O-])cc2)c([N+](=O)[O-])c1	inactive: 12.4%
O=P(Nc1ccccn1)(c1cccc2ccccc12)c1cccc2ccccc12	inactive: 10%
Cc1cc(SC(NC=O)C(Cl)(Cl)Cl)ncn1 (configuration not stated)	inactive: -17.5%
O=[N+]([O-])c1ccc(-c2cc([N+](=O)[O-])c(O)c([N+](=O)[O-])c2)cc1	inactive: -30.7%
COc1cc(C(=O)NCC2(N3CCOCC3)CCCCC2)ccc1OCC(C)C	inactive: 9.83%
C[As](=O)(O)c1cccc(C(=O)O)c1	inactive: 5.63%
O=[As](O)(c1ccc(O)cc1)c1ccccc1O	inactive: -4.24%
Cc1ccc2nc3c(c(C)c2c1)CC(C(Cl)Cl)S3 (configuration not stated)	inactive: -30.8%
[N-]=[N+]=NC1CCCCC1NC(=O)c1cc([N+](=O)[O-])cc([N+](=O)[O-])c1 (configuration not stated)	inactive: -9.1%
Cc1ccc(OP(=O)(Nc2ccc([N+](=O)[O-])cn2)Oc2ccc(C)cc2)cc1	inactive: -18.9%
COC(=O)C1(C)COP(=O)(N2CCCCCC2)OC1 (configuration not stated)	inactive: 6.83%
CC(C)c1ccc(OP(=O)(Nc2ccccn2)Oc2ccccc2F)cc1 (configuration not stated)	inactive: 24.1%
ClCCSc1nnc(-c2cccnc2)o1	inactive: 2.97%
O=[N+]([O-])c1cc([N+](=O)[O-])c(-c2ccn[nH]2)s1	inactive: -61.8%
CC(C)NC(=O)NP(=O)(Oc1ccccc1)Oc1ccccc1	inactive: -7.71%
CCN(CC)C(=S)SC(NC=O)C(Cl)(Cl)Cl (configuration not stated)	inactive: 18.2%

Structure (SMILES)	growth rescue
O=C(OC1CN2CCC1CC2)c1cccc2[nH]cnc12 (configuration not stated)	inactive: 19.9%
Cc1cc(=O)[nH]c(N[N+](=O)[O-])n1	inactive: 1.86%
O=C(OC1CN2CCC1CC2)C12CC3CC(CC(C3)C1)C2 (configuration not stated)	inactive: -4.54%
Cc1c2c(nc3ccccc13)SC(C(Cl)Cl)C2 (configuration not stated)	inactive: -33.8%
COc1cc(I)ccc1[As](=O)(O)O	inactive: -4.03%
COc1ccc2nc(NP(=O)(c3ccccc3)c3ccccc3)sc2c1	inactive: -2.47%
O=P1(N(CCCl)CCCl)Nc2ccccc2N1	inactive: -23.5%
COc1ccc(N/C(=N/P(=O)(N2CCOCC2)N2CCOCC2)N2CCOCC2)cc1	inactive: -6.27%
O=[N+]([O-])c1cc(Oc2ccc([N+](=O)[O-])cc2C(F)(F)F)cc([N+](=O)[O-])c1	inactive: 5.11%
NC(=O)c1cc([N+](=O)[O-])cc([N+](=O)[O-])c1N	inactive: 3.57%
Cc1ccc(N/C(=N/P(=O)(N2CCOCC2)N2CCOCC2)N2CCOCC2)cc1	inactive: -17.3%
CN(C(=O)Cc1ccc(Cl)c(Cl)c1)[C@H]1CCCC[C@H]1N1CCCC1	inactive: -25.9%
Cc1ccc(OP(=O)(Nc2nccs2)Oc2ccc(C)cc2)cc1	inactive: 1.12%
COc1ccccc1OP(=O)(Nc1ccc(C)cn1)Oc1ccccc1OC	inactive: -7.09%
CN1CCCC(OC(=O)C(c2ccccc2)c2ccccc2)C1 (configuration not stated)	inactive: -13.3%
Clc1ccc(Cl)c(NC2=NCC(CBr)S2)c1 (configuration not stated)	inactive: 3.88%
Nc1cc(N)c2nonc2c1[N+](=O)[O-]	inactive: 0.689%
CC(C)CC(=O)NC(Sc1ccc(Cl)cc1)C(Cl)(Cl)Cl (configuration not stated)	inactive: 20.7%
O=C(NC(Sc1ccncn1)C(Cl)(Cl)Cl)c1ccccc1 (configuration not stated)	inactive: -4.13%
Oc1ccccc1CNc1ccccn1	inactive: 10.4%
O=[N+]([O-])C1C(O)C(O)C([N+](=O)[O-])C(O)C1O (configuration not stated)	inactive: -13.4%
CCCC1OP(N)(=O)OCC1CC (configuration not stated)	inactive: 4.02%
CC(=O)Nc1ccc([As](=O)(O)O)cc1	inactive: -2.29%
O=C(O)c1ccccc1[As](=O)(O)O	inactive: -17.6%
O=P(Nc1nc2ccc(Cl)cc2s1)(c1ccccc1)c1ccccc1	inactive: -5.84%
CN(C)P(=O)(N(C)C)n1c(Nc2ccccc2)nnc1-c1ccccc1	inactive: -4.22%

Structure (SMILES)	growth rescue
Cc1ccc(NP(=O)(Oc2ccccc2F)Oc2ccccc2F)nc1	inactive: 10.2%
CN(C(=O)Cc1ccc(Cl)c(Cl)c1)[C@H]1CCCC[C@@H]1N1CCCC1	inactive: 1.73%
Cc1cc(SC(NC(=O)c2ccc(F)cc2)C(Cl)(Cl)Cl)ncn1 (configuration not stated)	inactive: -28.4%
CCOP(=O)(Nc1ccccc1)OCC	inactive: -11.9%
CCN(N=Nc1nonc1N)c1nonc1N	inactive: 8.76%
Nc1cccc2ccc([As](=O)(O)O)cc12	inactive: -9.73%
O=P1(N(CCCl)CCCl)OCCCS1 (configuration not stated)	inactive: -3.4%
O=C(Nc1cc([As](=O)(O)O)ccc1O)c1ccccc1	inactive: 6.08%
CC(C)(C)C(=O)NC(Sc1ccncn1)C(Cl)(Cl)Cl (configuration not stated)	inactive: 7.21%
O=[N+]([O-])c1ncn(CCn2ncnc2[N+](=O)[O-])n1	inactive: 13%
COC(=O)C1(C)COP(=O)(Nc2ccccc2)OC1 (configuration not stated)	inactive: -7.43%
O=[N+]([O-])c1cccc(NC2=NCC(CBr)S2)c1 (configuration not stated)	inactive: 6.28%
O=C(O)CNc1ccc([As](=O)(O)O)cc1	inactive: 10.9%
COc1ccc(C2=NCC(CBr)S2)cc1 (configuration not stated)	inactive: -14.6%
O=[N+]([O-])c1cccc2n[nH]nc12	inactive: -10.1%
CC(=O)N1C2C3N(C(C)=O)C1C1N(C(C)=O)C(C(N1C(C)=O)N3C(C)=O)N2C(C)=O	inactive: 14.9%
CCc1nc2c(n1)c1c(non1O)c1c2no[n+]1[O-]	inactive: 15.9%
O=[N+]([O-])c1cc([N+](=O)[O-])c(CCNc2ccccc2)c([N+](=O)[O-])c1	inactive: -53.3%
Cc1ccc(NP(=O)(Oc2ccccc2)Oc2ccccc2)nc1	inactive: 13.2%
Nc1ccc([As](=O)(O)c2ccc(N)cc2)cc1	inactive: -5.43%
CCN(/C(=N/P(=O)(N1CCOCC1)N1CCOCC1)N1CCOCC1)c1ccc(OC)cc1	inactive: 0.331%
CN(C)C(=O)OCCc1n(C)cc[n+]1C	inactive: 1.41%
CC(C)c1nc(Nc2ccccc2)n(P(=O)(N(C)C)N(C)C)n1	inactive: 4.63%
CC(C)=N/N=C(\N)N[N+](=O)[O-]	inactive: -5.59%

From PubChem BioAssay AID1347071 (National Center for Advancing Translational Sciences (NCATS), 2019)
